Experimental data as given in patent US20260382690A1, “Dual-Domain Peptide for Depleting HMGB1 from the Circulation via Liver HSPG System” (published 2026).
Several values for one entry are separate records, joined by “and”; a condition that tells them apart may be missing. Identical values can stand only once.

Legend:
GSNOR = assay: Facialis artery GSNOR protein immunoblot in treated SS mice; conditions: 2.72 mg/kg/d, 3 weeks; p<0.05
Method: Effects of hE-HMGB1-BP on facialis artery GSNOR in SS mice. SS mice were treated with hE-HMGB1-BP (2.72 mg/kg/d). After three weeks, SS mice were fully anesthetized, euthanized by exsanguination, and facialis arteries isolated by microdissection. The facialis arteries were snap frozen in liquid nitrogen, and proteins were isolated by homogenization using 200 μL of T-PER lysing buffer (Tissue Protein Extraction Reagent, Thermo Fisher Scientific, Milwaukee, WI; catalog #78510) in a bead lysis microcentrifuge tube (NextAdvance, Inc, Troy, NY; catalog #PINKE1-RNA). The homogenate was then concentrated by centrifugation using a spin column with a molecular cut-off of 10 kDa (Bio Vision, Milpitas, CA, catalog #1997-25). Proteins in concentrated facialis artery lysates were separated by polyacrylamide gel electrophoresis, transferred to nitrocellulose membranes, and membranes immunoblotted with anti-GSNOR/ADH5 rabbit polyclonal antibody (Proteintech Group Inc., Rosemont, IL; catalog #16379-1-AP) to determine GSNOR expression. GSNOR band intensities were normalized to total protein visualized with TGX Stain-Free gel technology (BioRad, Hercules, CA, catalog #4568094).
SS mice were treated with hE-HMGB1-BP (2.72 mg/kg/d). […]

CD31 = CD31 immunofluorescence in lung sections of treated SS mice; conditions: KYC 3 mg/kg/d, 3 weeks
Method: The right main bronchus was ligated with silk at the carina and snap-frozen in liquid nitrogen for immunoblot analysis after resection below the ligature. The trachea was then cannulated with an Instech Solomon (20G) stainless steel feeding tube (Plymouth Meeting, PA). After the trachea was securely ligated with silk, the left lobe was inflated with 10% neutral buffered formalin at 25 cm-H2O (2.4 kPa). After 1 h, the fixed lung was stored in 10% buffered formalin for 24 h and then embedded in paraffin for histology. Lung sections (5 um) were mounted on SuperFrost Plus-coated slides (Denville Scientific, Metuchen, NJ). Slides were deparaffinized, and sections stained with hematoxylin and eosin (H&E; Sigma, St. Louis, MO; catalog #MHS16 and HT110116) or immunostained for CD31 (R&D Systems, Minneapolis, MN; Catalog #AF3628) and GSNOR (Proteintech Group, Rosemont, IL; Catalog #11051-1-AP) for co-localization studies. Four to five immunofluorescence images were randomly captured for each lung section, the fluorescence intensities were analyzed for outliers and then averaged, and the average intensity was plotted as a single data point for each mouse. Protein SNOs were analyzed by Pierce S-Nitrosylation Western Blot Kit (Thermo Fisher, Milwaukee, WI; Catalog #90105). All other mentioned reagents and chemicals were purchased from Thermo Fisher (Milwaukee, WI). […]

SMILES | reduction of facialis artery GSNOR protein versus PBS-treated SS mice (GSNOR) | CD31+ cell staining difference from untreated AA mice (CD31)
CC[C@H](C)[C@H](NC(=O)CNC(=O)[C@H](CCCCN)NC(=O)[C@@H](NC(=O)[C@H](CC(=O)O)NC(=O)[C@H](Cc1ccccc1)NC(=O)[C@H](CC(N)=O)NC(=O)[C@H](CC(N)=O)NC(=O)[C@H](C)NC(=O)[C@H](CO)NC(=O)[C@H](Cc1c[nH]cn1)NC(=O)[C@H](C)NC(=O)CNC(=O)CNC(=O)[C@H](CCCNC(=N)N)NC(=O)[C@H](CC(C)C)NC(=O)[C@H](CC(C)C)NC(=O)[C@H](CCCNC(=N)N)NC(=O)[C@H](CCCCN)NC(=O)[C@H](CCCNC(=N)N)NC(=O)[C@H](CC(C)C)NC(=O)[C@H](CCCCN)NC(=O)[C@H](CCCNC(=N)N)NC(=O)[C@H](CC(C)C)NC(C)=O)C(C)C)C(N)=O | 20% and ~ 20% | 
CC(=O)N[C@@H](CCCCN)C(=O)N[C@@H](Cc1ccc(O)cc1)C(=O)N[C@@H](CS)C(N)=O |  | ≤ 20%
